Some of these compounds have results that are not shown, active ones among them.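 48-hour exposure; five concentrations; linearly interpolated endpoints. Abbreviation: GI50, concentration required for 50% inhibition of growth. TGI: concentration producing complete growth inhibition.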
Experiments:
Test in all cases: inhibition of tumour cell growth, NCI panel, 48 h
SK-MEL-5 melanoma = system: SK-MEL-5 melanoma
KM12 colon = system: KM12 colon
NCI-H23 lung = system: NCI-H23 lung
UO-31 renal = system: UO-31 renal
SF-539 CNS = system: SF-539 CNS
IGROV1 ovarian = system: IGROV1 ovarian
UACC-257 melanoma = system: UACC-257 melanoma
NCI-H522 lung = system: NCI-H522 lung
BT-549 breast = system: BT-549 breast
786-0 renal = system: 786-0 renal
SF-268 CNS = system: SF-268 CNS
MDA-MB-435 = system: MDA-MB-435
MDA-N = system: MDA-N
CCRF-CEM leukemia = system: CCRF-CEM leukemia
OVCAR-8 ovarian = system: OVCAR-8 ovarian
HS 578T breast = system: HS 578T breast
OVCAR-4 ovarian = system: OVCAR-4 ovarian
T-47D breast = system: T-47D breast
UACC-62 melanoma = system: UACC-62 melanoma
K-562 leukemia = system: K-562 leukemia
ACHN renal = system: ACHN renal
HOP-92 NSCLC = system: HOP-92 NSCLC
MALME-3M melanoma = system: MALME-3M melanoma
SN12C renal = system: SN12C renal
MDA-MB-231 breast = system: MDA-MB-231 breast
HCC-2998 colon = system: HCC-2998 colon
CAKI-1 renal = system: CAKI-1 renal
MOLT-4 leukemia = system: MOLT-4 leukemia
U251 CNS = system: U251 CNS
SW-620 colon = system: SW-620 colon
NCI/ADR-RES ovarian = system: NCI/ADR-RES ovarian
SK-OV-3 ovarian = system: SK-OV-3 ovarian
PC-3 prostate = system: PC-3 prostate
SNB-19 CNS = system: SNB-19 CNS
SK-MEL-2 melanoma = system: SK-MEL-2 melanoma
HCT-116 colon = system: HCT-116 colon
SNB-75 CNS = system: SNB-75 CNS
M14 melanoma = system: M14 melanoma
HL-60(TB) leukemia = system: HL-60(TB) leukemia
LOX IMVI melanoma = system: LOX IMVI melanoma
SR leukemia = system: SR leukemia
NCI-H460 lung = system: NCI-H460 lung
A498 renal = system: A498 renal
SF-295 CNS = system: SF-295 CNS
RPMI-8226 leukemia = system: RPMI-8226 leukemia
OVCAR-3 ovarian = system: OVCAR-3 ovarian
A549 NSCLC = system: A549 NSCLC
RXF 393 renal = system: RXF 393 renal
OVCAR-5 ovarian = system: OVCAR-5 ovarian
HOP-62 NSCLC = system: HOP-62 NSCLC
HT29 colon = system: HT29 colon
MCF7 breast = system: MCF7 breast
HCT-15 colon = system: HCT-15 colon
NCI-H226 lung = system: NCI-H226 lung
DU-145 prostate = system: DU-145 prostate
TK-10 renal = system: TK-10 renal
EKVX NSCLC = system: EKVX NSCLC
SK-MEL-28 melanoma = system: SK-MEL-28 melanoma
COLO 205 colon = system: COLO 205 colon

With `C/C=C\C(O)(C(=O)O[C@@H]1C2CCN(CC2)[C@@H]1C)C1CCCC1` (stereo partly drawn) the GI50 (SK-MEL-5 melanoma) was greater than 100 µM, the TGI (SK-MEL-5 melanoma) was greater than 100 µM and the GI50 (KM12 colon) was greater than 100 µM. For the same molecule, the TGI (KM12 colon) was greater than 100 µM, the GI50 (NCI-H23 lung) was greater than 100 µM and the TGI (NCI-H23 lung) was greater than 100 µM. The GI50 (UO-31 renal) was 97.5 µM, the TGI (UO-31 renal) was greater than 100 µM and the GI50 (SF-539 CNS) was greater than 100 µM. For the same molecule, the TGI (SF-539 CNS) was greater than 100 µM, the GI50 (IGROV1 ovarian) was greater than 100 µM and the TGI (IGROV1 ovarian) was greater than 100 µM. The GI50 (UACC-257 melanoma) was greater than 100 µM, the TGI (UACC-257 melanoma) was greater than 100 µM and the GI50 (NCI-H522 lung) was greater than 100 µM. The TGI (NCI-H522 lung) was greater than 100 µM, the GI50 (BT-549 breast) was greater than 100 µM and the TGI (BT-549 breast) was greater than 100 µM. The GI50 (786-0 renal) was greater than 100 µM, the TGI (786-0 renal) was greater than 100 µM and the GI50 (SF-268 CNS) was greater than 100 µM. The TGI (SF-268 CNS) was greater than 100 µM, the GI50 (MDA-MB-435) was greater than 100 µM and the TGI (MDA-MB-435) was greater than 100 µM. For the same molecule, the GI50 (MDA-N) was greater than 100 µM, the TGI (MDA-N) was greater than 100 µM and the GI50 (CCRF-CEM leukemia) was greater than 100 µM. The TGI (CCRF-CEM leukemia) was greater than 100 µM, the GI50 (OVCAR-8 ovarian) was greater than 100 µM and the TGI (OVCAR-8 ovarian) was greater than 100 µM. The GI50 (HS 578T breast) was 13.5 µM, the TGI (HS 578T breast) was greater than 100 µM and the GI50 (OVCAR-4 ovarian) was greater than 100 µM. The TGI (OVCAR-4 ovarian) was greater than 100 µM, the GI50 (T-47D breast) was greater than 100 µM and the TGI (T-47D breast) was greater than 100 µM. The GI50 (UACC-62 melanoma) was greater than 100 µM, the TGI (UACC-62 melanoma) was greater than 100 µM and the GI50 (K-562 leukemia) was greater than 100 µM. The TGI (K-562 leukemia) was greater than 100 µM, the GI50 (ACHN renal) was greater than 100 µM and the TGI (ACHN renal) was greater than 100 µM. It also gave a GI50 (HOP-92 NSCLC) greater than 100 µM, a TGI (HOP-92 NSCLC) greater than 100 µM and a GI50 (MALME-3M melanoma) greater than 100 µM. It also gave a TGI (MALME-3M melanoma) greater than 100 µM, a GI50 (SN12C renal) greater than 100 µM and a TGI (SN12C renal) greater than 100 µM. It also gave a GI50 (MDA-MB-231 breast) greater than 100 µM, a TGI (MDA-MB-231 breast) greater than 100 µM and a GI50 (HCC-2998 colon) greater than 100 µM. For the same molecule, the TGI (HCC-2998 colon) was greater than 100 µM, the GI50 (CAKI-1 renal) was greater than 100 µM and the TGI (CAKI-1 renal) was greater than 100 µM. It also gave a GI50 (MOLT-4 leukemia) greater than 100 µM, a TGI (MOLT-4 leukemia) greater than 100 µM and a GI50 (U251 CNS) greater than 100 µM. The TGI (U251 CNS) was greater than 100 µM, the GI50 (SW-620 colon) was greater than 100 µM and the TGI (SW-620 colon) was greater than 100 µM. It also gave a GI50 (NCI/ADR-RES ovarian) greater than 100 µM, a TGI (NCI/ADR-RES ovarian) greater than 100 µM and a GI50 (SK-OV-3 ovarian) greater than 100 µM. It also gave a TGI (SK-OV-3 ovarian) greater than 100 µM, a GI50 (PC-3 prostate) greater than 100 µM and a TGI (PC-3 prostate) greater than 100 µM. It also gave a GI50 (SNB-19 CNS) greater than 100 µM, a TGI (SNB-19 CNS) greater than 100 µM and a GI50 (SK-MEL-2 melanoma) greater than 100 µM. The TGI (SK-MEL-2 melanoma) was greater than 100 µM, the GI50 (HCT-116 colon) was greater than 100 µM and the TGI (HCT-116 colon) was greater than 100 µM. For the same molecule, the GI50 (SNB-75 CNS) was greater than 100 µM, the TGI (SNB-75 CNS) was greater than 100 µM and the GI50 (M14 melanoma) was greater than 100 µM. It also gave a TGI (M14 melanoma) greater than 100 µM, a GI50 (HL-60(TB) leukemia) greater than 100 µM and a TGI (HL-60(TB) leukemia) greater than 100 µM. The GI50 (LOX IMVI melanoma) was greater than 100 µM, the TGI (LOX IMVI melanoma) was greater than 100 µM and the GI50 (SR leukemia) was greater than 100 µM. For the same molecule, the TGI (SR leukemia) was greater than 100 µM, the GI50 (NCI-H460 lung) was greater than 100 µM and the TGI (NCI-H460 lung) was greater than 100 µM. The GI50 (A498 renal) was greater than 100 µM, the TGI (A498 renal) was greater than 100 µM and the GI50 (SF-295 CNS) was greater than 100 µM. For the same molecule, the TGI (SF-295 CNS) was greater than 100 µM, the GI50 (RPMI-8226 leukemia) was greater than 100 µM and the TGI (RPMI-8226 leukemia) was greater than 100 µM. It also gave a GI50 (OVCAR-3 ovarian) greater than 100 µM, a TGI (OVCAR-3 ovarian) greater than 100 µM and a GI50 (A549 NSCLC) greater than 100 µM. For the same molecule, the TGI (A549 NSCLC) was greater than 100 µM, the GI50 (RXF 393 renal) was greater than 100 µM and the TGI (RXF 393 renal) was greater than 100 µM. For the same molecule, the GI50 (OVCAR-5 ovarian) was greater than 100 µM, the TGI (OVCAR-5 ovarian) was greater than 100 µM and the GI50 (HOP-62 NSCLC) was greater than 100 µM. It also gave a TGI (HOP-62 NSCLC) greater than 100 µM, a GI50 (HT29 colon) greater than 100 µM and a TGI (HT29 colon) greater than 100 µM. The GI50 (MCF7 breast) was greater than 100 µM, the TGI (MCF7 breast) was greater than 100 µM and the GI50 (HCT-15 colon) was greater than 100 µM. The TGI (HCT-15 colon) was greater than 100 µM, the GI50 (NCI-H226 lung) was greater than 100 µM and the TGI (NCI-H226 lung) was greater than 100 µM. For the same molecule, the GI50 (DU-145 prostate) was greater than 100 µM, the TGI (DU-145 prostate) was greater than 100 µM and the GI50 (TK-10 renal) was greater than 100 µM. It also gave a TGI (TK-10 renal) greater than 100 µM, a GI50 (EKVX NSCLC) greater than 100 µM and a TGI (EKVX NSCLC) greater than 100 µM. It also gave a GI50 (SK-MEL-28 melanoma) greater than 100 µM, a TGI (SK-MEL-28 melanoma) greater than 100 µM and a GI50 (COLO 205 colon) greater than 100 µM. It also gave a TGI (COLO 205 colon) greater than 100 µM.

Source: PubChem BioAssay (NCI)
